Source: US20250346600A1, “TRICYCLIC DERIVATIVES AND RELATED USES” (MOMA Therapeutics, Inc., priority 2023, published 2025)

Amino acid sequences for entries named in this document (tags omitted). Residues count along the entry.
UniProt Q14191, 2-1432 limits assumed: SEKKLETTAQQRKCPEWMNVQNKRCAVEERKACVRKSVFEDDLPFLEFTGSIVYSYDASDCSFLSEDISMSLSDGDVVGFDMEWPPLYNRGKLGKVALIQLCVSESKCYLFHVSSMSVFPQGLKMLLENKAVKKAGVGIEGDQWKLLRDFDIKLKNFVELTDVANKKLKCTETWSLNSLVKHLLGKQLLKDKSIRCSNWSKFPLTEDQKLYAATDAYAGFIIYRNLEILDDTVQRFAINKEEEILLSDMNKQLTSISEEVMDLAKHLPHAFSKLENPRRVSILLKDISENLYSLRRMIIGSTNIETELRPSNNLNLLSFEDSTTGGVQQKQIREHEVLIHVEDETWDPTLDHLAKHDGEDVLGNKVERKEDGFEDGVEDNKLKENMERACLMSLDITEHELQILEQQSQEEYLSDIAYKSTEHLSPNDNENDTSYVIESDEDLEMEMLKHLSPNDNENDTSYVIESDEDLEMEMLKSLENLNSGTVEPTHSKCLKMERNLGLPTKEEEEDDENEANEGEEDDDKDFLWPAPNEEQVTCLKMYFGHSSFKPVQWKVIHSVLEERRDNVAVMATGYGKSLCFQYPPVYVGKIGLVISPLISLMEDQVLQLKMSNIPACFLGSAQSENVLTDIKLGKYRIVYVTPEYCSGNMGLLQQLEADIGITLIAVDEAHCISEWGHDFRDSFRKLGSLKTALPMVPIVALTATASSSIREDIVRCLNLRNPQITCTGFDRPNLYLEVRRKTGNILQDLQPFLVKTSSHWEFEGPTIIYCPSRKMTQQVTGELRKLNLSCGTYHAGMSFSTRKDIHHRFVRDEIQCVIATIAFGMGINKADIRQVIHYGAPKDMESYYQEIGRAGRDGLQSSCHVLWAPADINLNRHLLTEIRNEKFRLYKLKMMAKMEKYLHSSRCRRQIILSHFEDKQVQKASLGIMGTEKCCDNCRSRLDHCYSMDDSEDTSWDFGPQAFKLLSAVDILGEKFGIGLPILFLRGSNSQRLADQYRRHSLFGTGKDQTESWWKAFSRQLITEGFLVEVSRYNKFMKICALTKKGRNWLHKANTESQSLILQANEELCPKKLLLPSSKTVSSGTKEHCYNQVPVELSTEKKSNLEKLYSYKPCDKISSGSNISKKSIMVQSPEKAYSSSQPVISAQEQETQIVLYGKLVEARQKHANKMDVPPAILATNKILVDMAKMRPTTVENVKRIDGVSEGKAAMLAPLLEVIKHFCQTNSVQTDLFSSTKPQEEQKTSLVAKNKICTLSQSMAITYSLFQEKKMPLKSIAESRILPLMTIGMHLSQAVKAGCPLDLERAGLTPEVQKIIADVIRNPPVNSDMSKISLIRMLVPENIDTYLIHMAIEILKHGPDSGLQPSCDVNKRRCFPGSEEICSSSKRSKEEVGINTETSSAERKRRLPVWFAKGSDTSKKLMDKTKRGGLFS

How the values were obtained:
[1] = biological target: Full length WRN protein (aa 2-1432) (Homo sapiens (Human), UniProt Q14191); assay: WRN ATPase ADP-Glo biochemical assay, Assay Format B (100 μM ATP); settings: read-out: ATPase ADPGlo AC50 (uM)- Assay Format B, 0.25 nM WRN, 100 nM C6.18 ssDNA, 60 min preincubation
HCT116 cells = assay: HCT116 (MSI) 7 day viability, CellTiter Glo; settings: read-out: HCT116 (MSI) Viability 7 Day Abs AC50, 7 days
HT29 cells = assay: HT29 (MSS) 7 day viability, CellTiter Glo; settings: read-out: HT29 (MSS) Viability 7 Day CTGAbs AC50, 7 days

C=CC(=O)N1CCc2nc(-c3ccc(C4CCC4)cc3)n3c2C(C1)N(C(=O)c1cnc(C(F)(F)F)cc1N)CC3 (stereo not drawn)
AC50 [1]: 0.005 to 0.015 µM
AC50 (HCT116 cells): 1 to 100 nM
AC50 (HT29 cells): > 3000 nM
